Experiment [1] addresses human recombinant Btk (Homo sapiens, UniProt Q06187). Nature of the experiment: Human recombinant Btk enzyme assay. As to conditions: human recombinant Btk 1 nM, ATP 20 μM, 60 min room temperature. The protocol: Human Recombinant Btk Enzyme Assay
To V-bottom 384-well plates were added test compounds, human recombinant Btk (1 nM, Invitrogen Corporation), fluoresceinated peptide (1.5 μM), ATP (20 μM), and assay buffer (20 mM HEPES pH 7.4, 10 mM MgCl2, 0.015% Brij35 and 4 mM DTT in 1.6% DMSO), with a final volume of 30 μL. After incubating at room temperature for 60 min, the reaction was terminated by adding 45 μl of 35 mM EDTA to each sample. The reaction mixture was analyzed on the Caliper LABCHIP® 3000 (Caliper, Hopkinton, Mass.) by electrophoretic separation of the fluorescent substrate and phosphorylated product. Inhibition data were calculated by comparison to no enzyme control reactions for 100% inhibition and no inhibitor controls for 0% inhibition. Dose response curves were generated to determine the concentration required inhibiting 50% of kinase activity (IC50). Compounds were dissolved at 10 mM in dimethylsulfoxide (DMSO) and evaluated at eleven concentrations.

The chains behind the UniProt entries cited, without tags or fusion partners.
UniProt Q06187, whole entry: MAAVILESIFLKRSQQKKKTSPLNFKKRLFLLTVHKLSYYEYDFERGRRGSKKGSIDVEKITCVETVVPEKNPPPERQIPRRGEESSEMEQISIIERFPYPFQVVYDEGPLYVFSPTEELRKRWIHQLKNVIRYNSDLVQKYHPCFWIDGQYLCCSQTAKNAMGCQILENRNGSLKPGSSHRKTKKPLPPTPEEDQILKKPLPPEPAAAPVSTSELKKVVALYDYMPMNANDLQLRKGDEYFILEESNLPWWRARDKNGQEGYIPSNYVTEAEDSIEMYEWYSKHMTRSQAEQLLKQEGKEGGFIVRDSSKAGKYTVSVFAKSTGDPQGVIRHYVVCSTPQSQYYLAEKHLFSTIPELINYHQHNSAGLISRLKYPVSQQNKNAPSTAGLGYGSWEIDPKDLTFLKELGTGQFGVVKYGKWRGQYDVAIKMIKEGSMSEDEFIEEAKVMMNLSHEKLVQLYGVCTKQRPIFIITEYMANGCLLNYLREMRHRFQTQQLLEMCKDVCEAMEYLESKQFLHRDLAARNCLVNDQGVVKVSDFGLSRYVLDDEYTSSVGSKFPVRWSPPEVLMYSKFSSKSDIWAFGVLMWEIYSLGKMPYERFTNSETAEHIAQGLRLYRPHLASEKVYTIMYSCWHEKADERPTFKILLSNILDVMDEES

In experiment [2] the test system is Ramos RA1 B cells. Nature of the experiment: Ramos FLIPR assay. As to conditions: read-out: Human Ramos Cell FLIPR (IC50 μM); inhibition of peak intracellular calcium after F(ab')2 anti-IgM/IgG stimulation. The procedure: Ramos RA1 B cells (ATCC® CRL-1596) at a density of 2×10^6 cells/ml in RPMI minus phenol red (Invitrogen 11835-030) and 50 mM HEPES (Invitrogen 15630-130) containing 0.1% BSA (Sigma A8577) were added to one half volume of calcium loading buffer (BD bulk kit for probenecid sensitive assays, #640177) and incubated at room temperature in the dark for 1 hour. Dye-loaded cells were pelleted (Beckmann GS-CKR, 1200 rpm, RT, 5 minutes) and resuspended in RT RPMI minus phenol red with 50 mM HEPES and 10% FBS to a density of 1×10^6 cells/ml. 150 μl aliquots (150,000/well) were plated into 96 well poly-D-lysine coated assay plates (BD 35 4640) and briefly centrifuged (Beckmann GS-CKR 800 rpm, 5 minutes, without brake). 50 μal compound dilutions in 0.4% DMSO/RPMI minus phenol red+50 mM HEPES+10% FBS were added to the wells and the plate was incubated at RT in the dark for 1 hour. Assay plate was briefly centrifuged as above prior to measuring calcium levels.
Using the FLIPR1 (Molecular devices), cells were stimulated by adding 50 μl 200 μg/ml F(ab′)2 anti-IgM/IgG (Jackson ImmunoResearch 109-006-127) diluted in 1×HBSS (Invitrogen 14025-076), 50 mM HEPES, 0.1% BSA. Changes in intracellular calcium concentrations were measured for 180 seconds and percent inhibition was determined relative to peak calcium levels seen in the presence of F(ab′)2 anti-IgM/IgG only.
In general terms: Calcium flux is commonly read through the fluorescence of an indicator in the cells.

Experiment [3] has as its target Btk (pY551) in Ramos cells (Homo sapiens, UniProt Q06187). The experiment in a line: Btk phosphorylation assay. As to conditions: read-out: IC50 value, Btk phosphorylation, 1 hr preincubation, anti-human IgM+IgG 50 μg/mL 2 min, Alexa647 anti-Btk (pY551) MFI. The protocol: Btk Phosphorylation Assay
Ramos cells (˜6×10^6 cells/ml) were incubated in the presence of Btk inhibitors for 1 hr at 37° C. before being stimulated with anti-human IgM+IgG (F(ab′)2 fragment, Jackson ImmunoResearch, catalog #109-006-127) at 50 μg/mL for exactly 2 min at 37° C. Cells were immediately fixed by adding an equal volume of pre-warmed BD PhosFlow Fix buffer I (BD Biosciences, catalog number 557870) to the cell suspension. After incubating at 37° C. for 10 minutes, the cells were washed once with 3 mL FACS washing buffer (1% FBS/PBS) and permeabilized by adding 0.5 mL of cold BD PhosFlow Perm Buffer III (BD Biosciences, catalog number 558050) and incubating for 30 minutes on ice. The cells were washed an additional two times with 3 mL BD FACS washing buffer, re-suspended in 100 μl FACS washing buffer, stained with 20 L Alexa647 anti-Btk (pY551) (BD Biosciences, catalog number 558134), incubated at room temperature for 30 minutes in the dark, and washed once with 3 ml of FACS washing buffer. The cells were re-suspended in 400 μl FACS wash buffer and analyzed using FACSCalibur (BD Biosciences). Median fluorescent intensity (MFI) on Alexa 647 (FL-4) data were collected and used for calculations of inhibition.

For `Cc1c(NC(=O)c2ccc(N3CCCC3)cc2)cccc1-c1nc(Nc2ccc(C(=O)N3CCOCC3)cc2)c2nccn2n1`, the figures for the IC50 in experiment [1] and in experiment [2] were 0.362 µM and 0.515 µM, respectively.
Take `Cc1c(NC(=O)c2ccc(C(C)C)cc2)cccc1-c1nc(Nc2ccc(C(=O)N3CCOCC3)cc2)c2nccn2n1`: the IC50 in experiment [3] was 0.32 µM.
In the case of `Cc1c(NC(=O)c2ccc(C(C)(C)O)cc2)cccc1-c1nc(Nc2ccc(C(=O)N3CCOCC3)cc2)c2nccn2n1`, the figures for the IC50 in experiment [1] and in experiment [2] were 0.34 µM and 0.3 µM, respectively.
For `Cc1c(NC(=O)c2ccc(C(F)(F)F)cc2)cccc1-c1nc(Nc2ccc(C(=O)N3CCOCC3)cc2)c2nccn2n1`, the IC50 in experiment [1] turned out to be 1.35 µM; in experiment [2] it was 1.99 µM.
Taken in the same sequence, the figures for `Cc1c(NC(=O)c2ccc(C3CC3)cc2)cccc1-c1nc(Nc2ccc(C(=O)N3CCOCC3)cc2)c2nccn2n1` were 0.113 µM and 0.264 µM.
`Cc1c(NC(=O)c2ccc(N(C)C)cc2)cccc1-c1nc(Nc2ccc(C(=O)N3CCOCC3)cc2)c2ncc(N)n2n1`: the IC50 in experiment [1] turned out to be 0.03 µM.

The record behind these values is patent US8476430B2, “Fused heterocyclic compounds useful as kinase modulators” (Bristol-Myers Squibb Company, priority 2008, dated 2013).
